29 molecules from PubChem BioAssay AID1441 (NMMLSC, 2008) can be followed below.

Amino acid sequences for entries named in this document (tags omitted).
UniProt O15492, whole entry, looked up: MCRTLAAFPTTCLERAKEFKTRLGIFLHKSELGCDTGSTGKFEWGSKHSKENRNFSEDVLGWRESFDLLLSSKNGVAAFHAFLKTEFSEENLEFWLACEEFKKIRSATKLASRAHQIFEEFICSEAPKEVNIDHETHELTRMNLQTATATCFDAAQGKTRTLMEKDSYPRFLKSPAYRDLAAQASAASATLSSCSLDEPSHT
UniProt P09471, whole entry, looked up: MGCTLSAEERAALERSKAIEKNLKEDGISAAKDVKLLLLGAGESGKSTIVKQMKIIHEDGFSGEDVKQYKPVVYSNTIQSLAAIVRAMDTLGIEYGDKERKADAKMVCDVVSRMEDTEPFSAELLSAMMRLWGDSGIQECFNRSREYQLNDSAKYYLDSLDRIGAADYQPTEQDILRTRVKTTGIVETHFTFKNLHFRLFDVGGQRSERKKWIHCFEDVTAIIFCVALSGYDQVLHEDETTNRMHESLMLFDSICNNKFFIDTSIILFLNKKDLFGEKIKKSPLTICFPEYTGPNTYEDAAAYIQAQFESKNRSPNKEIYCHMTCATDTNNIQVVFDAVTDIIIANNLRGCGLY

Structures are written as SMILES. This is a selection; strong and weak results do not stand in their true shares. Calls of active or inactive are those of the source. No rule for the calls is given here.

For this assay, the target named is Regulator of G-protein signaling 16 (Homo sapiens) + Guanine nucleotide-binding protein G(o) subunit alpha (Homo sapiens) (UniProt O15492+P09471). In words: RGS16-Galphao interaction inhibitors and enhancers – biochemical, human proteins, multiplexed bead flow cytometry, primary screen (AID 1441).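 Also: Galphao activated by GDP with aluminum fluoride before binding.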 To be noted: bead-based flow cytometry RGS16-Galphao binding, fluorescence; at 10 µM; actives lie on both sides.
For the molecule `CCCOc1ccc(C)cc1CN(CCCl)CCCl`, the binding response (% of control) was inactive: 93.1%. Take `CCC(CO)(C(=O)OC1CN2CCC1CC2)c1ccccc1` (centres undefined): the binding response (% of control) was inactive: 95.1%. Regarding `COc1cc(OC)cc(C(=O)NCC2(N3CCOCC3)CCCCC2)c1`, the binding response (% of control) is inactive: 100%. For the molecule `CC(C)(C)OC(=O)N1CCC(Nc2ccccc2)CC1`, the binding response (% of control) was inactive: 93.4%. Take `CCOc1ncccc1C(=O)NCC1(N2CCOCC2)CCCCC1`: the binding response (% of control) is inactive: 188%. Consider `CN(C)c1ccc(C(=O)NCC2(N3CCCCC3)CCCCC2)cc1`, for which the binding response (% of control) is inactive: 95.4%. The figure for `CCN1CCC(Nc2cccc(F)c2)CC1` is inactive: 106%; for `Fc1ccccc1NC1CCN(Cc2ccccc2)CC1` it is inactive: 84.8%. For `c1ccc(CN2CCC(Nc3ccccc3)CC2)cc1`, the binding response (% of control) was inactive: 96.6%. Consider `N#Cc1ccc(C(=O)NCC2(N3CCCCC3)CCCCC2)cc1`, for which the binding response (% of control) is inactive: 109%. The figure for `O=C(OC1CN2CCC1CC2)C1c2ccccc2C=Cc2ccccc21` (centres undefined) is inactive: 85%; for `N/C(=N\O)c1c(N)no[n+]1[O-]` it is inactive: 102%. In the case of `COc1ccc(C(=O)NCC2(N3CCOCC3)CCCCC2)cc1OC`, the binding response (% of control) was inactive: 103%. To `CN(C)c1cccc(C(=O)NCC2(N3CCCCC3)CCCCC2)c1` belongs inactive: 94.3%; to `COc1ccc(CN(CCCl)CCCl)cc1Cl`, inactive: 98.9%. To `CC(C)c1ccc(NC2CCN(C(=O)OC(C)(C)C)CC2)cc1` belongs inactive: 105%; to `COc1ccc(NC2CCN(C(=O)OC(C)(C)C)CC2)cc1`, inactive: 97.7%. As for `CN1CCN(CCOC(=O)C(O)(c2ccccc2)c2ccccc2)CC1`, the binding response (% of control) is inactive: 101%. As for `O=C(NCC1(N2CCOCC2)CCCCC1)c1cc(=O)[nH]c2ccccc12`, the binding response (% of control) was inactive: 104%.

Turning to `O=C(NCC1(N2CCCCC2)CCCCC1)c1cccc([N+](=O)[O-])c1`, the binding response (% of control) is inactive: 98.6%. `N#CC1(Nc2ccccc2)CCN(CCc2ccccc2)CC1`: the binding response (% of control) was inactive: 104%. To `Cc1ccc(OCC(C)C)c(CN(CCCl)CCCl)c1` belongs inactive: 101%; to `COc1ccc(NC2CCN(CCc3ccccc3)CC2)c(OC)c1`, inactive: 106%; to `CCOc1ccc(C)cc1CN(CCCl)CCCl`, inactive: 104%.

Consider `CCOC(=O)N1CCC(Nc2ccc(OC)cc2)CC1`, for which the binding response (% of control) is inactive: 103%.

Take `O=C(OC1CN2CCC1CC2)C1c2ccccc2Oc2ccccc21` (centres undefined): the binding response (% of control) is inactive: 102%. On to `N#CC1(Nc2ccccc2)CCN(Cc2ccccc2)CC1`, for which the binding response (% of control) was inactive: 103%.

In the case of `O=C(NCC1(N2CCOCC2)CCCCC1)c1cc2ccccc2o1`, the binding response (% of control) is inactive: 328%.

`COc1ccc(C(=O)NCC2(N3CCCCC3)CCCCC2)c(OC)c1OC`: the binding response (% of control) is inactive: 101%.
